Measurements reported in patent US20240299561A1, “HISTIDINE-SELECTIVE POLYMER REAGENTS” (Nektar Therapeutics, priority 2021, published 2024).

Experiment: Hydrolytic stability of PEG conjugates with α-CBZ-histidine in PBS buffer, pH 7.4, 37° C. (HPLC)

| Substance | degree of hydrolytic stability relative to the other conjugates tested | % Hydrolysis at day 10 |
| --- | --- | --- |
| mPEG-OCO—NH-(piperidin-4-yl)-CO-α-CBZ-His 5 kDa [Conjugate 17] | highest degree of hydrolytic stability | 1.8% |
| mPEG-OCO-(2-CF3-piperazin-1-yl)-CO-α-CBZ-His 5 kDa [Conjugate 16] | highest degree of hydrolysis | 46.0% |
| mPEG-OCO—NH—CH2-(piperidin-4-yl)-α-CBZ-His 5 kDa [Conjugate 18] | highest degree of hydrolytic stability | 2.7% |
| mPEG-N(CH2CF3)—CO-α-CBZ-Histidine, 5 kDa [Conjugate 14] | – | 26.5% |
